# Experimental data taken from patent US7341721B2, “β2-microglobulin (β2m) and anti-β2m binding agents as anti-cancer therapeutics” (The Board of Trustees of the University of Arkansas, priority 2002, dated 2008).
# How the values were obtained:
# Format in all cases: cell-based, human
# [1] = test system: ARK-RS, ARP-1, RPMI-8226, and U266 cells; test: 3H-thymidine incorporation cell proliferation assay, EBV-negative myeloma cell lines; settings: β2m; dose-response in 48-hour culture, time-response at 20 μg/ml; P<0.05 and 0.01
# Experimental: (§1) The U266, RPMI-8226, ARH-77, and IM-9 human myeloma-derived cell lines were obtained from the American Type Culture Collection (Rockville, Md.). The ARP-1 and ARK-RS cell lines were established at the Arkansas Cancer Research Center from bone marrow aspirates of patients with MM (Harding, J., et al., Blood, 84:3063-3070, 1994) and provided by Dr. J. Epstein. These cell lines, except ARH-77 and IM-9, are negative for Epstein-Barr virus (EBV). Cells were cultured in RPMI-1640 (Gibco, Grand Island, NY) containing 10% heat-inactivated (56° C. for 30 min) fetal bovine serum, 100 U/ml penicillin, 100 μg/ml streptomycin, and 4 mmol L-glutamine (Gibco).
# (§2) Myeloma cells (1×10^5/ml for cell lines and 0.5-1×10^6/ml for primary cells) were cultured in complete medium. For experiments with β2m or anti-β2m antibody that bind β2m, cells were cultured in the absence or the presence of β2m for up to 120 hours or anti-β2m antibody for up to 48 hours. Viable cells were determined by trypan blue (Gibco) exclusion. […] Radioactivity was measured in a liquid scintillation analyzer (Packard, Meriden, Conn.). Experiments were performed in triplicate, and cell growth was expressed as a percentage of that seen in control media.
# ARH-77 and IM-9 = test: 3H-thymidine incorporation cell proliferation assay, EBV-positive cell lines; settings: β2m; 48-hour culture; P<0.05 and 0.01
# Experimental: as §1, §2
# primary myeloma cells [2] = test: 3H-thymidine incorporation cell proliferation assay, primary myeloma cells; settings: β2m, 24 hours
# Experimental: (§3) Primary myeloma cells were isolated from bone marrow aspirates obtained from patients during a routine clinic visit. Institutional Research Board-approved consent forms are kept on file. Briefly, bone marrow mononuclear cells were separated by Ficoll-Paque (Amersham Pharmacia Biotech, Piscataway, N.J.) density-gradient centrifugation. CD138^+ cells were isolated by incubation with anti-CD138 antibody-conjugated microbeads and sorted by VarioMACS magnetic cell-sorting kit (Miltenyi Biotec GmbH, Bergisch Gladbach, Germany), according to the manufacturer's recommendations. The sorted CD138^+ cell populations contained >90% myeloma plasma cells (Yi, Q., et al., Blood, 90:1960-1967, 1997). Freshly sorted cells were used in most of the experiments.
# as §2
# myeloma cell lines [3] = test: Apoptosis assay (Annexin V/PI staining, TUNEL), myeloma cell lines
# Experimental: (§4) The fraction of apoptotic cells was determined by staining cells with Annexin V-fluorescein isothiocyanate (FITC) (Immunotech) and propidium iodide (PI) (Sigma) (Vermes, I., et al., J. Immunol. Methods, 184:39-51, 1995). Myeloma cells were incubated in medium containing various concentrations of β2m, or anti-β2m antibody, or both, for 48 hours and then resuspended in Annexin V-binding buffer. 5 μl of Annexin V-FITC (BD PharMingen, San Diego, Calif.) were added and incubated for 30 minutes. After washing and re-suspension of the cells in the binding buffer, 5 μl of PI were added, and the cells were ready for analysis. Percentages of apoptotic cells are the sum of PI^−/Annexin V^+ (newly apoptotic) and PI^+/Annexin V^+ (already apoptotic) cell populations (Vermes, I., et al., J. Immunol. Methods, 184:39-51, 1995).
# To confirm cell apoptosis induced by β2m and anti-β2m antibodies, the terminal deoxynucleotidyl transferase-mediated dUTP nick end labeling (TUNEL) assay was also employed. A flow cytometry-based cell death detection kit (APO-BRDU) was purchased from BD PharMingen, and experiments were performed according to the manufacturer's protocol.
# primary myeloma cells [4] = test: Apoptosis assay, primary myeloma cells; settings: 20 μg/ml β2m for 24 hours
# Experimental: as §3
# as §4, with “Percentages of apoptotic cells are the sum of PI^−/Annexin V^+ (newly apoptotic) and PI^+/Annexin V^+ (already apoptotic) cell populations (Vermes, I., et al., J. Immunol. Methods, 184:39-51, 1995).” left out
# caspase-3 and PARP = test: Western blot of caspase-3 activation and PARP cleavage in myeloma cells; settings: β2m treatment
# Experimental: (§5) Cells were cultured with or without 40 μg/ml β2m for 48 hours, harvested, washed, and lysed with lysis buffer (50 mM Tris, pH 7.5, 140 mM NaCl, 5 mM EDTA, 5 mM NaN3, 1% Triton-X-100, 1% NP-40, 1× protease inhibitor cocktail). To detect cyclins A, D (D1 and D2), and E, cell lysates were subjected to SDS-PAGE, transferred to polyvinylidene difluoride membrane, and immunoblotted with respective anticyclin antibodies (Santa Cruz Biotechnology, Inc., Santa Cruz, Calif.). The membrane was stripped and reprobed with anti-β-actin antibody (Santa Cruz Biotechnology) to ensure equivalent protein loading. For detection of caspase-3 activation and cleavage of poly(ADP-ribose) polymerase (PARP), the membranes were immunoblotted with anti-caspase-3 antibody (Santa Cruz Biotechnology) or anti-PARP antibody (BD PharMingen). Secondary antibodies conjugated to horseradish peroxidase were used for detection, followed by enhanced chemiluminescence (Bio-Rad Laboratories, Hercules, Calif.) and autoradiography.
# When the pan-caspase inhibitor Z-VAD-FMK was added to the culture, activation and processing of caspase-3 (data not shown), cleavage of PARP (FIG. 5B), and apoptosis (FIG. 5C) were inhibited.
# myeloma cell lines [5] = test: Cell cycle analysis (BrdU incorporation) in myeloma cell lines; settings: β2m 20 μg/ml for 48 hours
# Experimental: To determine the effect of β2m, or anti-β2m antibodies, on cell cycle progression, 5-bromo-2′-deoxyuridine (BrdU, Sigma) incorporation was used (Gratzner, H. G., Science, 218:474-475, 1982). Briefly, after treatment with the agent of interest, cells were incubated for 2 hours with 20 μM BrdU, fixed with 70% ethanol overnight, washed with PBS, and incubated in 2 M hydrochloride for 20 minutes. After washing, FITC-conjugated anti-BrdU antibody (Becton Dickinson, Franklin Lakes, N.J.) was added and incubated for 20 minutes, followed by washing and incubation with ribonuclease (100 μg/ml RNase, Sigma) and PI (50 μg/ml). Cells were analyzed by flow cytometry.
# [6] = test system: cyclins A, D (D1 and D2), and E; test: Western blotting detection of cyclins in myeloma cell lines; settings: ARK-RS, ARP-1, RPMI-8226; β2m treatment
# Experimental: as §5
substance,measurement,setting,value
β2m: Purified human β2m from human urine (Sigma); 11.6-kDa non-glycosylated polypeptide of 100 amino acids,proliferation of myeloma cell lines (3H-thymidine incorporation),[1],suppressed by β2m in a dose-dependent (FIG. 1A) and time-dependent (FIG. 1B) manner
same,growth of EBV-positive cell lines,ARH-77 and IM-9,suppressed the growth
same,proliferation of primary myeloma cells,primary myeloma cells [2]; patient no. 3,no apparent effect
same,proliferation of primary myeloma cells,"primary myeloma cells [2]; patient nos. 1, 2, 4, and 5, P<0.05",inhibited the proliferation of cells from 4 of these patients in a dose-dependent manner
same,degree of apoptosis in six cell lines,"myeloma cell lines [3]; 40 μg/ml β2m, six myeloma cell lines compared","higher in RPMI-8226, ARK-RS, and ARH-77 cells"
same,induction of apoptosis,"myeloma cell lines [3]; RPMI-8226, Annexin V and PI staining and TUNEL assay, P<0.01, dose-dependent",significant induction of apoptosis
same,apoptotic cells,"primary myeloma cells [4]; patient 1, untreated 20%",38%
same,apoptotic cells,"primary myeloma cells [4]; patient 5, untreated 30%",45%
same,caspase-3 activation and PARP cleavage,"caspase-3 and PARP; ARK-RS, ARP-1, and RPMI-8226 cells",activation and processing of caspase-3 and cleavage of PARP
same,caspase-3 activation and PARP cleavage,caspase-3 and PARP; U266 cells,not in U266 cells
same,cell cycle distribution,"myeloma cell lines [5]; ARK-RS, ARP-1, and RPMI-8226",An increased percentage of cells in G0/G1 phases and a decreased percentage in S and G2/M phases
same,cell cycle distribution,myeloma cell lines [5]; U266,not in U266 cells
same,expression of cyclins A and D2,[6],downregulated cyclins A and D2
same,expression of cyclins D1 and E,[6],not cyclins D1 or E
